# System: stem cells
# Conditions: treated up to 6 μM, up to 166 hours, CCK-8 absorbance
compound,measurement,value
O=C(O)c1cn(C2CC2)c2cc(N3CCNCC3)c(F)cc2c1=O [ciprofloxacin],cytotoxicity,did not exhibit cytotoxicity

# Source: patent US20240376433A1, “STEM CELL INDUCTION INTO PRECHONDROCYTES AND DIFFERENTIATION INTO CHONDROCYTES BY CIPROFLOXACIN” (SMART CELL LAB CO., LTD., priority 2021, published 2024)
